This is an account of results in ChEMBL document CHEMBL1821572, “Discovery of a novel series of selective HCN1 blockers” (Bioorg Med Chem Lett, 2011).

Some of these compounds have results that are not shown, active ones among them.

The species named for this assay is Homo sapiens. Briefly: Selectivity for human HCN1 over human HCN4.

With `CCOc1ccccc1C(=O)NCC1(N2CCCCC2)CCCCC1`, the Selectivity ratio was found to be 10.
